Results taken from US20240226255A9, “COMPOSITIONS AND METHODS FOR ACTIVATING NK CELLS” (The Regents of the University of California, priority 2021, published 2024).

Test system: YAC-1 cells
Experiment: 4 h 51Chromium release assay of mouse NK cells cultured with monocytes ± LPS against YAC-1
Format: cell-based
Details: IL-2-treated WT NK cells + monocytes from Cox-2flox/flox;LysMCre/+ mice; LPS 20 ng/mL
Method: IL-2-treated (1×10^4 U/million) NK cells obtained from wild type mice were cultured with monocytes from wild type mice or Cox-2flox/flox;LysMCre/+ mice for 7 days and then treated with or without LPS (20 ng/mL) for an additional day. Afterward, NK cells were used as effector cells in a standard 4 h ^51Chromium release assay against YAC-1 cells. […] NK cells were treated as described in (FIG. 4A) and afterward the supernatant was removed from the co-cultures and the levels of IFN-γ secretion were determined using specific ELISAs. *P<0.05 was obtained for differences in secretion of IFN-γ between untreated and LPS-treated NK cells cultured with monocytes from control littermates or those from Cox-2flox/flox;LysMCre/+ mice (FIG. 4B). NK cells were prepared as described in (FIG. 4A) and used as effector cells against DCs derived from monocytes from either wild type or Cox-2flox/flox; LysMCre/+ mice in a standard 4 h ^51Chromium release assay. […] One of several representative experiments is shown in this figure.
Purified NK cells obtained from control WT littermates were treated with IL-2 and cultured in the presence of autologous monocytes or those obtained from Cox-2flox/flox; LysMCre/+ mice in the absence and presence of LPS before they were used in a standard ^51Cr release assay against YAC-1 tumors. […]

Substance: Lipopolysaccharide [LPS]
- NK cell-mediated cytotoxicity against YAC-1 cells: completely abolished
